Usually inhibition stands for the change of the read-out against control, counted positive when it falls.

The list shows a part of the results, in another mix than the full data. The source made the active and inactive calls.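 The calls were made as follows: active = inhibition above 3 SD of the buffer control wells (cut at about 41% in these data); inactive = the rest.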

The assay is described as follows: inhibition of M3R-evoked calcium signal on retest – cell-based, HEK293 M3R/RGS4 inducible, calcium flux, duplicate, RGS4 activator project, confirmation (AID 602282).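 Also: signal is the integrated peak-minus-minimum Fluo4 fluorescence over baseline ratio.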 The note with it: carbachol calcium flux Fluo4, at 10 µM, hits give high values. A general note: A change in cytosolic calcium serves as a functional read-out for many receptors and channels.
Take `O=C(OC1CN2CCC1CC2)C1c2ccccc2C=Cc2ccccc21` (stereo not drawn): the inhibition was active: 91%. To `COc1cc(C(=O)NCC2(N3CCCCC3)CCCCC2)ccc1OC(F)F` belongs active: 65.5%; to `CCOc1ccc(C)cc1CN(CCCl)CCCl`, active: 92.5%.
